Patent US11787785B2 (NOVARTIS AG, priority 2021, dated 2023)

Amino acid sequences for entries named in this document (tags omitted).
UniProt O95785, whole entry: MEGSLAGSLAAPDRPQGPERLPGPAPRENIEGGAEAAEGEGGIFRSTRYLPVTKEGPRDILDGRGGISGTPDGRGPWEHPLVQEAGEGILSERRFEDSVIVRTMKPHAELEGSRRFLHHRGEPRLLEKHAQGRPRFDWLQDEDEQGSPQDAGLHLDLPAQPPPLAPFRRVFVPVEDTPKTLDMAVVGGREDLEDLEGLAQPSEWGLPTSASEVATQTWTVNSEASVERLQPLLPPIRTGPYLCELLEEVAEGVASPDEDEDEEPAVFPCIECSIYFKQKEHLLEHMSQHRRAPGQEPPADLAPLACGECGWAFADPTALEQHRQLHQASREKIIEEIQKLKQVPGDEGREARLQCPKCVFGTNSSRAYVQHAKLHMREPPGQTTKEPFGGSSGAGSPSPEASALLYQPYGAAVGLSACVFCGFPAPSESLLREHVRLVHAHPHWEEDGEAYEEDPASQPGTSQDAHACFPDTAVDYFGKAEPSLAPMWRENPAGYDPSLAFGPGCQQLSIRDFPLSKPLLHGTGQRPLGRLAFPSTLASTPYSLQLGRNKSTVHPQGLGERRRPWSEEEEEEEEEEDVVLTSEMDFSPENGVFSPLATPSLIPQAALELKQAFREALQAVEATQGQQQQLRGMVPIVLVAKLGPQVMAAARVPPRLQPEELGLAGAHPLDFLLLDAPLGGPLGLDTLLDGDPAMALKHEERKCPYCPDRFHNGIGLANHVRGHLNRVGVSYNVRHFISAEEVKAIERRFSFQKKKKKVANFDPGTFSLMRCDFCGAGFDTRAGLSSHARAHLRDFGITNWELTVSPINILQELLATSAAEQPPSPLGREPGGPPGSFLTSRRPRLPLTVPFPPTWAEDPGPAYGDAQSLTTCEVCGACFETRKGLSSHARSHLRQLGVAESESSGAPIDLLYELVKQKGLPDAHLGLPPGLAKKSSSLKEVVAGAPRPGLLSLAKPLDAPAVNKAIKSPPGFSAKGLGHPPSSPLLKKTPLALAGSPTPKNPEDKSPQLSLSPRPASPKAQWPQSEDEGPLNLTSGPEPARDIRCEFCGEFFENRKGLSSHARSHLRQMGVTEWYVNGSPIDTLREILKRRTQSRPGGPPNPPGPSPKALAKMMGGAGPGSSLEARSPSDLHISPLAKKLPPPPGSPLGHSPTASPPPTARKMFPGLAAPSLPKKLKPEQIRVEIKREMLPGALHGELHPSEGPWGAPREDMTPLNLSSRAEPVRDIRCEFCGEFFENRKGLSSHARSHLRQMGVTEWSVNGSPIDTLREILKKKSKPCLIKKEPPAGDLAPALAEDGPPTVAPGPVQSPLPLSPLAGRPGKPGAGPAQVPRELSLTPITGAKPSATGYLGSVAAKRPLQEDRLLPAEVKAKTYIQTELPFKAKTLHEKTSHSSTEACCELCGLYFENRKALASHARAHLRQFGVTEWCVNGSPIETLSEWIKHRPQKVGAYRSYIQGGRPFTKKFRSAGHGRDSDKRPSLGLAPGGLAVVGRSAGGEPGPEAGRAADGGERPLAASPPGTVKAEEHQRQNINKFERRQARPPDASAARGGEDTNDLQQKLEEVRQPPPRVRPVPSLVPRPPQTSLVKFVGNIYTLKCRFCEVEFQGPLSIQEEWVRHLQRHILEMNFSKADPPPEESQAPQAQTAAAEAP
UniProt Q96SW2, whole entry: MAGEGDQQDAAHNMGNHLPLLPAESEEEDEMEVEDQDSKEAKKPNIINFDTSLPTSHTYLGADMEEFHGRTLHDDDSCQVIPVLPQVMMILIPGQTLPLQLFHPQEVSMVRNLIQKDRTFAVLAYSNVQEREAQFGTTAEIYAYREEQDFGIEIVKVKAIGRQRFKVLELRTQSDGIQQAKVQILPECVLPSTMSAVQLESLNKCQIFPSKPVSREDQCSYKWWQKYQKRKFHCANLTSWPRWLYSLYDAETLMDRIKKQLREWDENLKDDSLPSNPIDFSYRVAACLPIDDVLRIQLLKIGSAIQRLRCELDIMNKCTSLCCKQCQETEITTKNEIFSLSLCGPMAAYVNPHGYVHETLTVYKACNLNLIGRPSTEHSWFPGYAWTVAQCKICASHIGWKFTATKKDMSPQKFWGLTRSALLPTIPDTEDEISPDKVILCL
UniProt Q16531, whole entry partner: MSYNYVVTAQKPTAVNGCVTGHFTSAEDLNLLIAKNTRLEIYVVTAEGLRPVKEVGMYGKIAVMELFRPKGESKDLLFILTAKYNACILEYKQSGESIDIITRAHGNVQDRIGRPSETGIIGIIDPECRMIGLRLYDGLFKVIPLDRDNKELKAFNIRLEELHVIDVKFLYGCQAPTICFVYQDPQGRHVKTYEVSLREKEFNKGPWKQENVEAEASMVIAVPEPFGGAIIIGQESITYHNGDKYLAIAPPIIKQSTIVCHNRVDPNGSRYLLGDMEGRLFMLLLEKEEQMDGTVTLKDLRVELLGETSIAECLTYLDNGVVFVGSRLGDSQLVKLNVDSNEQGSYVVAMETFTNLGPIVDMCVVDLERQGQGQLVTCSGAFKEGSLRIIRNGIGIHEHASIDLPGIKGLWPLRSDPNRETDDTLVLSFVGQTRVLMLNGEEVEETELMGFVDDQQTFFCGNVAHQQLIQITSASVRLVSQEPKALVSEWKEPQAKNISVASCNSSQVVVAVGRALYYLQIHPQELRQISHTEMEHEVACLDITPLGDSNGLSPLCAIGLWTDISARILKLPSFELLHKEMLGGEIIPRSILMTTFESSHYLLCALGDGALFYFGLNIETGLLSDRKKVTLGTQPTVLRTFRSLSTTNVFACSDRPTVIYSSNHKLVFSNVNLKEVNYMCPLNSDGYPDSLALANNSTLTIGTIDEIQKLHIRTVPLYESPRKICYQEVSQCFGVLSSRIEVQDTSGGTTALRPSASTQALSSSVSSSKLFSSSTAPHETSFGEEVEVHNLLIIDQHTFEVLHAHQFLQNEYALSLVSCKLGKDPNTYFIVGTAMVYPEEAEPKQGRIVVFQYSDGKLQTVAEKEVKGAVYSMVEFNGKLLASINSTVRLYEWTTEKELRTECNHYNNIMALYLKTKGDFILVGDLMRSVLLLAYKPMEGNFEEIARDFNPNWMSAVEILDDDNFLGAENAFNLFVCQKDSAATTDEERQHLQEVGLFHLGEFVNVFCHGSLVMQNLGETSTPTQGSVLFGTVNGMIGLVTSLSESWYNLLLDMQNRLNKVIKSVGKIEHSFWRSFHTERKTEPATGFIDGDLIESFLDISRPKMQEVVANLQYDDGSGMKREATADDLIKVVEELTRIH

Target: WIZ protein (HiBit-WIZ fusion protein) (Homo sapiens, UniProt O95785+Q96SW2)
Assay: Quantification of WIZ protein levels in HiBit tag fusion protein assay (WIZ HiBit assay in 293T cells)
Format: cell-based
Settings: for % degradation of WIZ (100 − Amax): at 25 uM; for % degradation of WIZ (100 − Amax) / WIZ Amax: 293T cells; for WIZ Amax: DMSO-normalized, curve-fitted percentage of WIZ-HiBit remaining at 25 uM; for AC50: read-out: WIZ AC50, WIZ HiBit assay in 293T cells, 10-point, 5-fold dose response, highest concentration 25 μM, about 18 hours

Row | % degradation of WIZ (100 − Amax) [%] | WIZ Amax [%] | AC50 [nM] | SMILES
1 | 82 | 18 | 3 | CC(C)S(=O)(=O)N1CC[C@@H](Cc2ccn3ncc(N4CCC(=O)NC4=O)c3c2)C[C@@H]1C
2 | 77 | 23 | 10 | C[C@H]1C[C@H](Cc2ccn3ncc(N4CCC(=O)NC4=O)c3c2)CCN1C(=O)NC1CCCC1
